The values that follow come from ChEMBL document CHEMBL1143618, “Discovery of a beta-MSH-derived MC-4R selective agonist” (J Med Chem, 2005).

Amino acid sequences for entries named in this document (tags omitted). A change or cut given only in a name is not applied to a line headed by its entry.
UniProt P41968: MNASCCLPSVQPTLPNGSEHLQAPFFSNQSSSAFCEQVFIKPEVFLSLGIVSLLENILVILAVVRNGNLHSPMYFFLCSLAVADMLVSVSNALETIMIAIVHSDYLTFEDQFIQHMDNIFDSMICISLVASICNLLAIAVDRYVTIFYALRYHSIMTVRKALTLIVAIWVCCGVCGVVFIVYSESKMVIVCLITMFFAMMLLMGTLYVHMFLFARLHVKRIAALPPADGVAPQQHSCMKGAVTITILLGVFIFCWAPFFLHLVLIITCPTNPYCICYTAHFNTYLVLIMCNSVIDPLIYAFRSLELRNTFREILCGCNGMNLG

The target of this experiment is Melanocortin receptor 3 (Homo sapiens, UniProt P41968). The experiment in a line: Percent efficacy at human Melanocortin-3 receptor for cAMP release. In kind it is functional.

`CC(=O)N[C@H](CCCN=C(N)N)C(=O)N[C@H]1CSSC[C@@H](C(N)=O)NC(=O)[C@H](Cc2c[nH]c3ccccc23)NC(=O)[C@@H](CCCN=C(N)N)NC(=O)[C@@H](Cc2ccccc2)NC(=O)[C@@H](Cc2c[nH]cn2)NC(=O)[C@H](CCC(=O)O)NC1=O`: the Relative efficacy stood at 87.3%.

Consider `CC(=O)N[C@@H](CCCN=C(N)N)C(=O)N[C@H]1CSSC[C@@H](C(N)=O)NC(=O)[C@H](Cc2c[nH]c3ccccc23)NC(=O)[C@@H](CCCN=C(N)N)NC(=O)[C@@H](Cc2ccccc2)NC(=O)[C@@H](Cc2c[nH]cn2)NC(=O)[C@H](CCC(=O)O)NC1=O`, for which the Relative efficacy turned out to be 84.1%.
